Values quoted from earlier work, collected in patent US20030045478A1, “Gamma-ketoacid dipeptide derivatives as inhibitors of caspase-3” (priority 2000, published 2003).
pKi: −log10 of the molar value.

Assays:
[1] = molecular target: T1, caspase-3 (Homo sapiens, UniProt P42574)
T1 sequence (P42574 29-175 limits assumed): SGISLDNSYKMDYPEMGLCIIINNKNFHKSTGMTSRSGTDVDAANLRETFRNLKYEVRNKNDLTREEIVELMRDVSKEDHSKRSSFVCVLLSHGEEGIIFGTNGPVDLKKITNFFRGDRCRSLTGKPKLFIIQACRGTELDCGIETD
T1 sequence (P42574 176-277 limits assumed): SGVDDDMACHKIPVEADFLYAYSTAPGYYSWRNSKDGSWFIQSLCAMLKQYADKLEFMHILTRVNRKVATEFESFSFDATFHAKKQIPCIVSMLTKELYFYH

[2] = molecular target: T2, caspase-1 (Homo sapiens, UniProt P29466)
T2 sequence (P29466 120-297 limits assumed): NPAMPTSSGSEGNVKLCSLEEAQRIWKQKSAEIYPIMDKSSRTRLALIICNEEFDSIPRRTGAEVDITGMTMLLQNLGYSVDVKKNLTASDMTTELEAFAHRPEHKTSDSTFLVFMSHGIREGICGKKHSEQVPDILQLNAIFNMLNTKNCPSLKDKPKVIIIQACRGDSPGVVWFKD
T2 sequence (P29466 317-404 limits assumed): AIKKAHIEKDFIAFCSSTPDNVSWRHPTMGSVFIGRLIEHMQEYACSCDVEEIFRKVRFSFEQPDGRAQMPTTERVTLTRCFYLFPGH

In the case of Ac-DEVD-CHO, the pKi [1] is listed as over 9.00 and the “inhibition of caspase-1 (in words)” value [2] is listed as “weaker but reasonable inhibitor”.
